± gives the standard error. The entries are a selection whose mix differs from that of the whole data set.
Test system: Trichoderma virens ATCC 9645
Assay: growth yield (OD600) with compound + IPBC relative to untreated control; higher = less growth inhibition
Settings: compound concentration: 100 uM, IPBC concentration: 200 ng/ml
Summary of the method: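 Library compounds (100 μM final), with or without a co-applied biocide (200 ng ml^−1), were added to 100 μl aliquots of Trichoderma virens ATCC 9645 spores at 15,000 spores ml^−1 in potato dextrose broth. Cultures were grown at 30 °C in 96-well plates, and OD600 was measured at 40 h and 72 h. Each growth value is a mean of duplicate screens, expressed relative to the control with neither agent.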

For `COc1cc(Br)c(C[N+]2(CCOCCC3CCC4CC3C4(C)C)CCOCC2)cc1OC` (configuration not stated) [Pinaverium bromide] + CCCCNC(=O)OCC#CI [3-iodo-2-propynyl butylcarbamate (IPBC)], the growth yield (40 h) was 3.02 ± 0.16% and the growth yield (72 h) was 2.52%.
